Laboratory results reported in patent US20190336615A1 (SILVERBACK THERAPEUTICS, published 2019).

The chains behind the UniProt entries cited, without tags or fusion partners. Residues count along the entry.
UniProt P08637, 17-208 limits assumed: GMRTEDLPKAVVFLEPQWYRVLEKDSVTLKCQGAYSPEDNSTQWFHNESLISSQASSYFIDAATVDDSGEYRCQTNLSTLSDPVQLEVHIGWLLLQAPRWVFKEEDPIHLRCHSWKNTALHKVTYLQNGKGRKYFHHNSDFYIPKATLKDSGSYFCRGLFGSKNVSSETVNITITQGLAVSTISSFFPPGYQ
UniProt P08637, 17-208 F176V: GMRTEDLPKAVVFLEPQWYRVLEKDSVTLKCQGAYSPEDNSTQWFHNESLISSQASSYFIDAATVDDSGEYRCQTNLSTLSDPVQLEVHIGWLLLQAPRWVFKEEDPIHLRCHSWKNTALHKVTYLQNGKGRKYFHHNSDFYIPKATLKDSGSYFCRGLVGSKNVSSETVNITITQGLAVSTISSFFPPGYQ

Columns and labels:
human FcγRIIIA F158 = biological target: T1, human FcγRIIIA F158 (human, UniProt P08637, in part); test: BLI (Octet), FcγR on anti-His sensor, antibody analyte, avidity model
T1 construct: not tied to the assay protein; also called huFcγR3 F158

human FcγRIIIA V158 = biological target: T2, human FcγRIIIA V158 (human, UniProt P08637, in part); test: as above
T2 construct: F as the other allele comes from its 'F158' variant; 158 counts on the mature protein, not on the precursor entry; also called huFcγR3 V158

human FcγRI, monomeric = biological target: T3, human FcγRI, monomeric (human); test: BLI (Octet), antibody on anti-human Fc sensor, monomeric FcγR analyte, 1:1 model
T3 construct: not tied to the assay protein; also called huFcγR1; huFcyRI
Procedure: (§1) Equilibrium dissociation constants (KD) were calculated by the […].

human FcγRIIA, monomeric = biological target: T4, human FcγRIIA, monomeric (human, UniProt P12318 36-218, limits assumed); test: as above
T4 construct: not tied to the assay protein; also called huFcγR2A; huFcyRIIA
T4 sequence (looked up): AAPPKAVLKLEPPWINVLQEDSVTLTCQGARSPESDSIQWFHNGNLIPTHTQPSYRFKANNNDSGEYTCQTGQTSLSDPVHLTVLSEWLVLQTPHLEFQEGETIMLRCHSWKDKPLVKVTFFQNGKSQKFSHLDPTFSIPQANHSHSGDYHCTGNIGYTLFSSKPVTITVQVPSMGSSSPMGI
Procedure: as §1

B1: bispecific anti-HER2 x anti-CD40 IgG1 Fc null recombinant antibody (HER2-CD40 G1null) (bispecific antibody)
heavy: EVQLVESGGGLVQPGGSLRLSCAASGFTFTDYTMDWVRQAPGKGLEWVADVNPNSGGSIYNQRFKGRFTLSVDRSKNTLYLQMNSLRAEDTAVYYCARNLGPSFYFDYWGQGTLVTVSSASTKGPSVFPLAPSSKSTSGGTAALGCLVKDYFPEPVTVSWNSGALTSGVHTFPAVLQSSGLYSLSSVVTVPSSSLGTQTYICNVNHKPSNTKVDKKVEPKSCDKTHTCPPCPAPEAAGAPSVFLFPPKPKDTLMISRTPEVTCVVVDVSHEDPEVKFNWYVDGVEVHNAKTKPREEQYNSTYRVVSVLTVLHQDWLNGKEYKCAVSNKALPAPIEKTISKAKGQPREPQVYTLPPSREEMTKNQVSLTCLVKGFYPSDIAVEWESNGQPENNYKTTPPVLDSDGSFFLYSKLTVDKSRWQQGNVFSCSVMHEALHNHYTQKSLSLSPGGGGGSGGGGSQVQLVQSGAEVKKPGASVKVSCKASGYTFTGYYMHWVRQAPGQGLEWMGWINPDSGGTNYAQKFQGRVTMTRDTSISTAYMELNRLRSDDTAVYYCARDQPLGYCTNGVCSYFDYWGQGTLVTVSSGGGGSGGGGSGGGGSGGGGSDIQMTQSPSSVSASVGDRVTITCRASQGIYSWLAWYQQKPGKAPNLLIYTASTLQSGVPSRFSGSGSGTDFTLTISSLQPEDFATYYCQQANIFPLTFGGGTKVEIK
light: DIQMTQSPSSLSASVGDRVTITCKASQDVSIGVAWYQQKPGKAPKLLIYSASYRYTGVPSRFSGSGSGTDFTLTISSLQPEDFATYYCQQYYIYPYTFGQGTKVEIKRTVAAPSVFIFPPSDEQLKSGTASVVCLLNNFYPREAKVQWKVDNALQSGNSQESVTEQDSKDSTYSLSSTLTLSKADYEKHKVYACEVTHQGLSSPVTKSFNRGEC
notes: also called anti-HER2×anti-CD40 Fcnull; HER2-CD40 Fcnull
Human FcγRIIIA F158
  binding result: no binding (tested: 37 nM to 1 µM antibody)
Human FcγRIIIA V158
  binding result: no binding (tested: 37 nM to 1 µM antibody)
Human FcγRI, monomeric
  binding result: no binding (tested: 1.2 nM to 300 nM FcγR)
Human FcγRIIA, monomeric
  binding result: no binding (tested: 1.2 nM to 300 nM FcγR)
